# According to article PMC4104666 (Bioorganic & medicinal chemistry letters, 2011):
# Amino acid sequences for entries named in this document (tags omitted).
# UniProt P28222, whole entry: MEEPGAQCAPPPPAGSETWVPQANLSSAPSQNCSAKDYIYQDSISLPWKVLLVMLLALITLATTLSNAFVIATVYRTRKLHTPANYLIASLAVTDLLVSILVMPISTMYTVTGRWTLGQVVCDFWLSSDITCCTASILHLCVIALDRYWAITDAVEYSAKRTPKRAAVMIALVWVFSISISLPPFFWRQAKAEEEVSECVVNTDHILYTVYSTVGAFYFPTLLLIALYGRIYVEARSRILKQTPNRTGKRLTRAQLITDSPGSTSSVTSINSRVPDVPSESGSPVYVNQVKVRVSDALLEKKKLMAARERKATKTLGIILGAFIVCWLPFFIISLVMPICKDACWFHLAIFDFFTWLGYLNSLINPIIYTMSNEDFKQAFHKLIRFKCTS
# Molecular target: 5-HT1B receptor (Homo sapiens, UniProt P28222)
structure (smiles),measurement,value
CN1C[C@H](C(=O)N[C@]2(C)O[C@@]3(O)[C@@H]4CCCN4C(=O)[C@H](Cc4ccccc4)N3C2=O)C=C2c3cccc4[nH]cc(c34)C[C@H]21 [ergotamine],"radioligand competition displacement ([3H]-CT), HEK cell membranes",Displacement by the reference ligand ergotamine is shown for comparison.
